Active and inactive are the calls of the source.

Chains of the proteins cited; added tags and fusions are not shown. Lines headed by an entry give the natural chain unless they say otherwise; changes in a name come on top.
UniProt P35377: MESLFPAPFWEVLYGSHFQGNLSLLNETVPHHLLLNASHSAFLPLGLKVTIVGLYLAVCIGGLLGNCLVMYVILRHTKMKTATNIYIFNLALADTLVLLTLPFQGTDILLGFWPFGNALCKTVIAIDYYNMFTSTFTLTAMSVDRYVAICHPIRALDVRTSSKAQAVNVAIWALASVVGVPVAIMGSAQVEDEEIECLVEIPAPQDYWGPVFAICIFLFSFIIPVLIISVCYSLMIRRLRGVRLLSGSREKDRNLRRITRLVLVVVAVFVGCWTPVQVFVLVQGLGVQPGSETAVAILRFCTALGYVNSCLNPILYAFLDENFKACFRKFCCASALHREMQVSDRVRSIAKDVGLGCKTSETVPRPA

One experiment has as its target Nociceptin receptor (Mus musculus, UniProt P35377). Description: Antagonist activity at NOR in mouse Neuro-2a cells assessed as inhibition of nociceptin-induced ERK phosphorylation administered for 15 mins before nociceptin challenge by Alphascreen Surefire assay. It is filed as functional, cell-based. On the technique in general: In Alpha technology, singlet oxygen from a donor bead excites a nearby acceptor bead.

The target in experiment [1] is Nociceptin receptor (Mus musculus) (UniProt P35377). Description: Antagonist activity at NOR in mouse Neuro-2a cells assessed as inhibition of nociceptin-induced ERK phosphorylation at 100 nM administered for 15 mins before nociceptin challenge by Alphascreen Surefire assay. The class given is functional, cell-based.
Experiment [2] shares this target. In words: Agonist activity at NOR in mouse Neuro-2a cells assessed as stimulation of ERK phosphorylation after 35 mins post dose by Alphascreen Surefire assay relative to control.
The subject of experiment [3] is Mus musculus. In words: Antinociceptive activity in C57BL/6 mouse assessed as increase in paw withdrawal latency administered through intraplanatar route by hot plate test. It is filed as functional. (Hot-plate and tail-flick tests time the reaction to a heat stimulus.)
The subject of experiment [4] is Mus musculus. In words: Antinociceptive activity in C57BL/6 mouse assessed as increase in paw withdrawal latency administered through intraplanatar route measured 60 mins post dose by hot plate test. The class given is functional, organism-based.
Experiment [5] has as its system Mus musculus. Description: Antinociceptive activity in C57BL/6 mouse assessed as maximal increase in paw withdrawal latency administered through intraplanatar route by hot plate test relative to untreated control. The class given is functional.
Experiment [6] concerns Mus musculus. Description: Antinociceptive activity in C57BL/6 mouse assessed as increase in paw withdrawal latency administered through intraplanatar route by hot plate test co-administered with NOR antagonist compound 16. It is filed as functional, organism-based. In short, it runs like this: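 Male C57BL/6 mice were given an intraplantar co-injection into each front paw of NOR antagonist (200 nmol) with agonist (200 pmol) in saline. Front-paw withdrawal latency on a 53 °C hot plate was measured against baseline, at 5-60 min post-injection, with a 30 s cutoff. Results are % change from baseline, mean ± SEM.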

For experiment [7], the system named is Mus musculus. Description: Antinociceptive activity in C57BL/6 mouse assessed as increase in paw withdrawal latency administered through intraplanatar route measured 5 mins post dose by hot plate test. The class given is functional, organism-based.
Experiment [8] has as its system Mus musculus. Description: Antinociceptive activity in C57BL/6 mouse assessed as increase in paw withdrawal latency administered through intraplanatar route measured 15 mins post dose by hot plate test. It is filed as functional, organism-based.

Turning to `C[C@@H](O)[C@H](N)C(=O)NCC(=O)N[C@H]1CCCCNC(=O)C[C@@H](C(=O)N[C@@H](CCCNC(=N)N)C(=O)N[C@@H](CCCCN)C(=O)N[C@H]2CCCCNC(=O)C[C@@H](C(N)=O)NC(=O)[C@H](CCC(N)=O)NC(=O)[C@H](CC(N)=O)NC(=O)[C@H](CCCCN)NC2=O)NC(=O)[C@H](CO)NC(=O)[C@H](CCCCN)NC(=O)[C@H](CCCNC(=N)N)NC1=O`, at Nociceptin receptor (read-out: pIC50 (converted)), the IC50 was over 100 nM. For the same compound, the inhibition result in [1] was “inactive”.
Broadly, the Emax is the maximal effect, on the per cent scale that the assay sets. As for `C[C@H](NC(=O)[C@H](CCC(N)=O)NC(=O)[C@H](CC(N)=O)NC(=O)[C@H](C)NC(=O)[C@H](C)NC(=O)[C@H](CCCCN)NC(=O)[C@H](CCCNC(=N)N)NC(=O)[C@H](C)NC(=O)[C@H](CO)NC(=O)[C@H](CCCCN)NC(=O)[C@H](CCCNC(=N)N)NC(=O)[C@H](C)NC(=O)CNC(=O)[C@@H](NC(=O)[C@H](Cc1ccccc1)NC(=O)CNC(=O)CNC(=O)[C@@H](N)Cc1ccccc1)[C@@H](C)O)C(N)=O`, the maximal effect (Emax) in experiment [2] was 93%.
Regarding `C[C@@H](O)[C@H](NC(=O)[C@H](Cc1ccc(F)cc1)NC(=O)CNC(=O)CNC(=O)[C@@H](N)Cc1ccccc1)C(=O)NCC(=O)N[C@H]1CCCCNC(=O)C[C@@H](C(=O)N[C@@H](CCCNC(=N)N)C(=O)N[C@@H](CCCCN)C(=O)N[C@H]2CCCCNC(=O)C[C@@H](C(N)=O)NC(=O)[C@H](CCC(N)=O)NC(=O)[C@H](CC(N)=O)NC(=O)[C@H](CCCCN)NC2=O)NC(=O)[C@H](CO)NC(=O)[C@H](CCCCN)NC(=O)[C@H](CCCNC(=N)N)NC1=O`, in the experiment with Mus musculus [3], the Activity entry is “Dose-dependent effect”, the ED50 is given as 70 pmol and the ED100 amounted to 200 pmol. In the experiment on Mus musculus [4], the result was Active. Moreover, in the experiment on Mus musculus [5], the maximum response (Emax) came to 120%. Moreover, the result in the experiment on Mus musculus [6] was inactive. In addition, the maximal response (Emax) in [2] was determined as 101%.
With `CC(C)C[C@H](NC(=O)[C@H](CCCCN)NC(=O)[C@H](CCCNC(=N)N)NC(=O)[C@H](C)NC(=O)[C@H](CO)NC(=O)[C@H](CCCCN)NC(=O)[C@H](CCCNC(=N)N)NC(=O)[C@H](C)NC(=O)CNC(=O)[C@@H](NC(=O)[C@H](Cc1ccccc1)NC(=O)CNC(=O)CNC(=O)[C@@H](N)Cc1ccccc1)[C@@H](C)O)C(=O)N[C@@H](C)C(=O)N[C@@H](CC(N)=O)C(=O)N[C@@H](CCC(N)=O)C(N)=O` [NOCICEPTIN-NH2], in the experiment with Mus musculus [3], the Activity result is “Dose-dependent effect” and the ED50 worked out at 184 pmol. The result with Mus musculus [7] was inactive. Besides, the maximum response (Emax) in the experiment with Mus musculus [5] was found to be 120%. In [2], the Emax came out at 103%.
For the compound `CC(=O)NCCCC[C@H](NC(=O)CNC(=O)[C@@H](NC(=O)[C@H](Cc1ccccc1)NC(=O)CNC(=O)CNC(=O)[C@@H](N)Cc1ccccc1)[C@@H](C)O)C(=O)N[C@@H](CCCNC(=N)N)C(=O)N[C@@H](CCCCN)C(=O)N[C@@H](CO)C(=O)N[C@@H](CC(N)=O)C(=O)N[C@@H](CCCNC(=N)N)C(=O)N[C@@H](CCCCN)C(=O)N[C@@H](CCCCNC(C)=O)C(=O)N[C@@H](C)C(=O)N[C@@H](CC(N)=O)C(=O)N[C@@H](CCC(N)=O)C(=O)N[C@@H](CC(N)=O)C(N)=O`, the Emax in [2] was 99%.
With `CC(C)C[C@H](NC(=O)[C@H](CCCCN)NC(=O)[C@H](CCCNC(=N)N)NC(=O)[C@H](C)NC(=O)[C@H](CO)NC(=O)[C@H](CCCCN)NC(=O)[C@H](CCCNC(=N)N)NC(=O)[C@H](C)NC(=O)CNC(=O)[C@@H](NC(=O)[C@H](Cc1ccc(F)cc1)NC(=O)CNC(=O)CNC(=O)[C@@H](N)Cc1ccccc1)[C@@H](C)O)C(=O)N[C@@H](CCCCN)C(=O)N[C@@H](CC(N)=O)C(=O)N[C@@H](CCC(N)=O)C(N)=O`, in the experiment with Mus musculus [3], the Activity result was “Dose-dependent effect” and the ED50 is recorded as 161 pmol. In addition, the result in the experiment with Mus musculus [8] was inactive. Also, the Emax in experiment [2] amounted to 108%.
On to `C[C@@H]1NC(=O)[C@@H](NC(=O)[C@H](CCCCN)NC(=O)[C@H](CCCNC(=N)N)NC(=O)[C@@H]2CC(=O)NCCCC[C@H](NC(=O)CNC(=O)[C@@H](NC(=O)[C@H](Cc3ccccc3)NC(=O)CNC(=O)CNC(=O)[C@@H](N)Cc3ccccc3)[C@@H](C)O)C(=O)N[C@@H](CCCNC(=N)N)C(=O)N[C@@H](CCCCN)C(=O)N[C@@H](CO)C(=O)N2)CCCCNC(=O)C[C@@H](C(N)=O)NC(=O)[C@H](CCC(N)=O)NC(=O)[C@H](CC(N)=O)NC1=O`, for which the maximal response (Emax) in [2] was determined as 94%.
For the compound `CC(=O)N[C@H]1CCCCNC(=O)C[C@@H](C(=O)N[C@@H](CCCNC(=N)N)C(=O)N[C@@H](CCCCN)C(=O)N[C@H]2CCCCNC(=O)C[C@@H](C(N)=O)NC(=O)[C@H](CCC(N)=O)NC(=O)[C@H](CC(N)=O)NC(=O)[C@H](CCCCN)NC2=O)NC(=O)[C@H](CO)NC(=O)[C@H](CCCCN)NC(=O)[C@H](CCCNC(=N)N)NC1=O`, on Nociceptin receptor (read-out: pIC50 (converted)), the IC50 was over 100 nM. In addition, the inhibition entry in experiment [1] was “inactive”.
Take `CC(C)C[C@@H]1NC(=O)[C@H](CCCCN)NC(=O)[C@H](CCCNC(=N)N)NC(=O)[C@@H](NC(=O)[C@@H]2CC(=O)NCCCC[C@H](NC(=O)[C@@H](NC(=O)[C@H](Cc3ccccc3)NC(=O)CNC(=O)CNC(=O)[C@@H](N)Cc3ccccc3)[C@@H](C)O)C(=O)N[C@@H](C)C(=O)N[C@@H](CCCNC(=N)N)C(=O)N[C@@H](CCCCN)C(=O)N2)CCCCNC(=O)C[C@@H](C(N)=O)NC1=O`: the Emax in experiment [2] was found to be 96%.
As to `C[C@H](NC(=O)CNC(=O)[C@@H](NC(=O)[C@H](Cc1ccccc1)NC(=O)CNC(=O)CNC(=O)CNCc1ccccc1)[C@@H](C)O)C(=O)N[C@@H](CCCN=C(N)N)C(=O)N[C@@H](CCCCN)C(=O)N[C@@H](CO)C(=O)N[C@@H](C)C(=O)N[C@@H](CCCN=C(N)N)C(=O)N[C@@H](CCCCN)C(N)=O`, at Nociceptin receptor (neuro-2a, read-out: IC50), the IC50 was found to be 755 nM.

For the origin of these results see ChEMBL document CHEMBL1629538, “Novel helix-constrained nociceptin derivatives are potent agonists and antagonists of ERK phosphorylation and thermal analgesia in mice” (J Med Chem, 2010).
